The record followed here is publication PMC3931418 (Nature, 2014).

One assay concerns the target δ-OR WT (HEK293) (Homo sapiens, UniProt P41143). It is filed as binding.
The target in a further assay is δ-OR N131A (HEK293) (Homo sapiens, UniProt P41143, N131A). It is filed as binding.

Take DADLE: the “effect of NaCl on binding affinity” value on δ-OR WT (HEK293) is “reduced the affinity”. In addition, the binding affinity result at δ-OR N131A (HEK293) is given as “increased”.
